Assay results from PubChem BioAssay (EPA / NIEHS).
This is a selection; strong and weak results do not stand in their true shares. Activity calls are given as the source filed them. How the source made its calls: active means hit-call score of the fitted dose curve at least 0.9, where 1 is the maximum; inactive means score below 0.9.

Legend:
Settings in all cases: actives raise or lower the signal; mRNA level, 48 h
[1] = read-out: HGF (gene 3082); test: LTEA_HepaRG_HGF: Life Technologies and Expression Analysis (LTEA) Assay for Hepatocyte Growth Facto (HGF) using HepaRG (AID 2283505)
How it was run: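 Differentiated HepaRG cells in serum-free induction medium exposed 48 h in duplicate, 8 half-log concentrations from 100 uM in 0.5% DMSO. HGF mRNA by qRT-PCR, normalised to ACTB, GAPDH, POLR2A; bidirectional fitting.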

[2] = read-out: Insulin Like Growth Factor 1 (IGF1), IGF1 (gene 3479); test: LTEA_HepaRG_IGF1: Life Technologies and Expression Analysis (LTEA) Assay for Insulin Like Growth Factor 1 (IGF1) using HepaRG (AID 2283506)
How it was run: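 HepaRG, plated 48 h, then switched to serum-free induction media; test chemical 8-pt half-log from 100 uM (0.5% DMSO), duplicate, 48 h. Lysis in RLT, TaqMan qRT-PCR, norm. ACTB/GAPDH/POLR2A. Bidirectional fit vs DMSO.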

[3] = read-out: Intercellular Adhesion Molecule 1 (ICAM1), ICAM1 (gene 3383); test: LTEA_HepaRG_ICAM1: Life Technologies and Expression Analysis (LTEA) Assay for Intercellular Adhesion Molecule 1 (ICAM1) using HepaRG (AID 2283507)
How it was run: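 Differentiated human HepaRG cells in serum-free induction medium exposed 48 h in duplicate to 8 half-log concentrations (top 100 uM, 0.5% DMSO). ICAM1 mRNA quantified by TaqMan qRT-PCR, normalized to ACTB, GAPDH and POLR2A; bidirectional fitting versus DMSO.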

[4] = read-out: Insulin-like growth factor-binding protein 1 (IGFBP1), IGFBP1 (gene 3484); test: LTEA_HepaRG_IGFBP1: Life Technologies and Expression Analysis (LTEA) Assay for Insulin-like growth factor-binding protein 1 (IGFBP1) using HepaRG (AID 2283508)
Experimental: (§1) LTEA_HepaRG is a cell based, multiplexed-readout assay that uses HepaRG, a human liver cell line, with measurements taken at 48 hours after chemical dosing on a 96-well plate.LTEA_HepaRG_IGFBP1 is one of 102 assay component(s) measured in the LTEA HepaRG cell culture assay. It is a marker of Cell proliferation, survival, death.Data from the assay component LTEA_HepaRG_IGFBP1 was analyzed into 1 endpoint. This assay endpoint, LTEA_HepaRG_IGFBP1, was analyzed with bidirectional fitting relative to DMSO as the negative control and baseline of activity. Using a type of inducible reporter, measures of mRNA induction for gain or loss-of-signal activity can be used to understand regulation of transcription factor activity. To generalize the intended target to other relatable targets, this assay endpoint is annotated to the transporter intended target family, where the subfamily is hormone carrier protein.
(§2) A total of 1060 chemcials from the ToxCast library were tested in eight-point concentration-response experiments. Cell culture and cytotoxicity assays were conducted at Thermo Fisher Scientific's Custom Services facility (Madison, WI). […] Fluidigm's 96.96 Dynamic ArrayTM (Fluidigm, Amsterdam, the Netherlands) technology was used for gene expression analyses by quantitative reverse transcription polymerase chain reaction (qRT-PCR, performed by Quintiles/Expression Analysis, Durham, NC)89. […]

[5] = read-out: Interleukin 6 (IL6), IL6 (gene 3569); test: LTEA_HepaRG_IL6: Life Technologies and Expression Analysis (LTEA) Assay for Interleukin 6 (IL6) using HepaRG (AID 2283509)
How it was run: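 HepaRG cells exposed in duplicate for 48 h to eight half-log concentrations, top 100 uM, in 0.5% DMSO serum-free induction medium. mRNA measured by qRT-PCR, normalized to ACTB, GAPDH and POLR2A. Bidirectional fit versus DMSO.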

[6] = read-out: Interleukin 6 Receptor (IL6R), IL6R (gene 3570); test: LTEA_HepaRG_IL6R: Life Technologies and Expression Analysis (LTEA) Assay for Interleukin 6 Receptor (IL6R) using HepaRG (AID 2283510)
How it was run: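 Readout is IL6R transcript level by TaqMan qRT-PCR, normalized to three housekeeping genes and fitted bidirectionally against 0.5% DMSO controls. Human HepaRG cells received chemicals for 48 h in serum-free induction medium, highest concentration 100 uM.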

[7] = read-out: Potassium channel subfamily K member 1 (KCNK1), KCNK1 (gene 3775); test: LTEA_HepaRG_KCNK1: Life Technologies and Expression Analysis (LTEA) Assay for Potassium channel subfamily K member 1 (KCNK1) using HepaRG (AID 2283511)
How it was run: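 Differentiated HepaRG cells, 48 h exposure in serum-free induction medium with 0.5% DMSO; 8 concentrations, half-log from 100 uM, duplicate. KCNK1 mRNA by qRT-PCR, normalized to ACTB, GAPDH, POLR2A; bidirectional fit vs DMSO.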

[8] = read-out: Keratin 19 (KRT19), KRT19 (gene 3880); test: LTEA_HepaRG_KRT19: Life Technologies and Expression Analysis (LTEA) Assay for Keratin 19 (KRT19) using HepaRG (AID 2283512)
How it was run: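 Differentiated HepaRG cells in serum-free induction medium, exposed 48 h in duplicate to 8 half-log concentrations up to 100 uM in 0.5% DMSO. KRT19 mRNA by qRT-PCR, normalized to ACTB, GAPDH, POLR2A; bidirectional fit vs DMSO.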

[9] = read-out: JUN Transcription Factor, JUN (gene 3725); test: LTEA_HepaRG_JUN: Life Technologies and Expression Analysis (LTEA) Assay for JUN Transcription Factor using HepaRG (AID 2283513)
Experimental: as §1, with “plate.LTEA_HepaRG_JUN” for “plate.LTEA_HepaRG_IGFBP1”, “LTEA_HepaRG_JUN” for “LTEA_HepaRG_IGFBP1”, “LTEA_HepaRG_JUN,” for “LTEA_HepaRG_IGFBP1,”, “dna binding” for “transporter”, “basic leucine zipper.” for “hormone carrier protein.”
as §2

[10] = read-out: Lipase C (LIPC), LIPC (gene 3990); test: LTEA_HepaRG_LIPC: Life Technologies and Expression Analysis (LTEA) Assay for Lipase C (LIPC) using HepaRG (AID 2283514)
How it was run: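 HepaRG cells, 48 h after plating, treated in duplicate for 48 h in serum-free induction medium over 8 half-log concentrations from 100 uM, 0.5% DMSO. LIPC mRNA by TaqMan qRT-PCR normalized to ACTB/GAPDH/POLR2A; bidirectional fit versus DMSO.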

Measured: outcome

O=[N+]([O-])c1ccccc1[N+](=O)[O-]
inactive: all assays above
